## Binding of CDR-mutated scFvs to a peptide of the spike HR2 region

Target: peptide PDVDLGDISGINAS, taken from heptad repeat 2 (HR2) of SARS-CoV-2 spike.

Ab-14 is the parent antibody, in scFv form: VH, then a 15-residue (Gly4Ser)3 linker, then VL. The light chain is unchanged in all variants.
VH: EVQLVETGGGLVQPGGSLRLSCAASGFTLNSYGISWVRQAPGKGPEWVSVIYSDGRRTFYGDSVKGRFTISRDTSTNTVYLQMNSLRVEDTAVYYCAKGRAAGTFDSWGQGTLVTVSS
VL: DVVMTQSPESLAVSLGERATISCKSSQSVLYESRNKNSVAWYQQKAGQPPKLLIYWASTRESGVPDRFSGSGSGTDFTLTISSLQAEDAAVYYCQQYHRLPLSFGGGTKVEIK

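AAYL49 was designed without a model: most single CDR substitutions and a random sample of double and triple ones. The scFvs were displayed on barcoded MATa yeast, the peptide on MATalpha yeast. Mating (16 h, 30 °C) was followed by selection of diploids and sequencing of their barcodes. A regression on co-assayed BCL2-family reference pairs converts the normalised counts of each replicate to an apparent Kd. Mating was done three times.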

Variants are written as CDR1, CDR2 and CDR3 of the heavy chain (limits as in the source). Parent: GFTLNSYGIS, VIYSDGRRTFYGDSVK, GRAAGTFDS. Each Kd is an estimate from the mating assay, the geometric mean of the replicates in which the pair was seen; lower is stronger. A pair that was not seen in any replicate is written "not detected"; this usually means weak binding, but a binder can also be missed. Parent in this assay: reference entry 4.4 nM, copy in this library 13 µM (one replicate of three). Empty control strains, which show no peptide, gave a signal in 15% of pairings with library AAYL49; the median was 11 µM and 95% of these signals were weaker than 680 nM. No background was subtracted.

| CDR-H1 | CDR-H2 | CDR-H3 | Kd (apparent) | seen in |
|---|---|---|---|---|
| GFTHNSYVIS | VIYKDGRRTFYGDSVK | GRAAGTFDS | not detected | 0/3 |
| GGTLNSYGIS | VPYSDGRRTFYGDSVK | GRAAGTFES | 6.0 µM | 1/3 |
| GFTLNSYGIR | VIYSDGIRTFYGDSVK | GRAALTFDS | 2.2 µM | 1/3 |
| KFTLNSYGIS | VIYSDGRRTFYGDSVK | GRAACTFDF | 39 nM | 3/3 |
| GFWLNAYGIS | VIYSDGRRTFYGDSVT | GRAAGTFDS | 160 nM | 3/3 |
| GFTLTSYGIS | VIFSDGRRTFYGDSVK | HRAAGTFDS | not detected | 0/3 |
| GFTRNSYGIS | VIYSDGRRTFYGDFVK | GRAAGVFDS | not detected | 0/3 |
| GFTLNSMGIS | VIYSDGRRTIYGDDVK | GRAAGTFDS | not detected | 0/3 |
| GSTLNSYGIS | VSYSDSRRTFYGDSVK | GRAAGTFDS | not detected | 0/3 |
| GFKLNSYGAS | VIYSDGRRTFYGDSVK | TRAAGTFDS | 12 µM | 2/3 |
| GFTLNSYGIS | FIYSDKRRTFYGDSVK | GKAAGTFDS | not detected | 0/3 |
| LFILNSYGIS | VIYSDGRMTFYGDSVK | GRAAGTFDS | not detected | 0/3 |
| GFTLNSYGID | VIYSDGRRTFYGDSVK | DRAAGTMDS | 2.4 µM | 1/3 |
| GFTLNSYGNL | VIYSDARRTFYGDSVK | GRAAGTFDS | 800 nM | 1/3 |
| GFTLNSYGIS | VIYSDGRRTFYGDSNK | GRAAGTFDM | 17 µM | 1/3 |
| GFVLNSYGIS | VIYGDGRRTFYGDSVK | GRAAGTFDS | 320 nM | 2/3 |
| GFTLNVYGIS | VIYSDGYRTFYGDSVK | GRAAGTFDS | 270 nM | 3/3 |
| GFILNSQGIS | EIYSDGRRTFYGDSVK | GRAAGTFDS | not detected | 0/3 |
| GFTLNSYGIS | VIYSDYRRTFYGDSQK | GRAASTFDS | 34 µM | 1/3 |
| GFTLNSYGIS | QIYSDGRRTFYGDSVK | GQATGTFDS | 780 µM | 1/3 |
| GFTLNSYGES | VIYSDGRRTFYGASIK | GRAAGTFDS | not detected | 0/3 |
| GFTLCSYGIS | VIYSDGRCTFYGDSVK | GRAAWTFDS | not detected | 0/3 |
| GFTLGSYGIS | VIYSDGRRTFRGPSVK | GRAAGTFDS | 12 µM | 1/3 |
| GFTLNSYGIS | VIYVDGRRHFYGDGVK | GRAAGTFDS | 32 µM | 3/3 |
| GFTLGSHGIS | VIYSKGRRTFYGDSVK | GRAAGTFDS | not detected | 0/3 |
| GFTVNSYGIS | VIYRDGTRTFYGDSVK | GRAAGTFDS | not detected | 0/3 |
| GFTLNSYGIS | VIETDGRRTFYGDSVK | GRAAGHFDS | 1.4 mM | 2/3 |
| GFELGSYGIS | VIYSDGRRTFYGDSVK | GRATGTFDS | 2.2 nM | 3/3 |
| GFTLNSYGIS | VIYSDGRRTFYGMISK | GRAAGTFDS | 160 µM | 1/3 |
| GFTLNSYGIS | VIYSDGRRTFYGDSVQ | GRAAGAFDS | 830 nM | 1/3 |
| GFTLNSYGDS | CIYVDGRRTFYGDSVK | GRAAGTFDS | 28 µM | 2/3 |
| GFTLNSYGIS | VIHSKGRRTFYGDSVK | GRAAGTFDA | not detected | 0/3 |
| GFTLNSYGIL | VIYSDGRRTFYGDIVK | GRAAHTFDS | 100 µM | 3/3 |
| GFMLNSYGIS | VVYSDGRRTFYGDSVK | GRAAGTIDS | not detected | 0/3 |
| GFTTNSYGIS | VIYSDGRRTFYGRSDK | GRAAGTFDS | 4.6 µM | 1/3 |
| GFTLNSYGIS | VIYSDERRTFYADSVK | GRAAGTFWS | not detected | 0/3 |
| GWTLNSQGIS | VIRSDGRRTFYGDSVK | GRAAGTFDS | 28 µM | 1/3 |
| GFTANSYGTS | VIYSDGRRTIYGDSVK | GRAAGTFDS | not detected | 0/3 |
| GLTLNSYGIS | VIYSDGRKTFYGDSVK | GRAAWTFDS | not detected | 0/3 |
| GFTLNSYGIS | VIYFDGRRTFTGDSVK | GRAAGTFDH | not detected | 0/3 |
| GMTLNSYGTS | VIYSDGRRTFYGDKVK | GRAAGTFDS | 4.1 µM | 1/3 |
| GFTLNSYGIS | FIYSHGRRTFYGDSEK | GRAAGTFDS | not detected | 0/3 |
| GFTLNSYPIC | VIYSDGRRTFYGDSYK | GRAAGTFDS | not detected | 0/3 |
| GATLNSYGIS | VIYSDGRRVQYGDSVK | GRAAGTFDS | 3.3 µM | 3/3 |
| GFTLNSYGIS | VIYSDGRRSFYGDSVK | GRAAGTEDS | 230 nM | 3/3 |
| GFTLNSYGIS | VIYCDTRRTFYGGSVK | GRAAGTFDS | not detected | 0/3 |
| GFTLNSYGIS | VIYSMGRLTFYGDSVK | GRAAGTFDS | 15 µM | 1/3 |
| GFTLNSYGIS | VIYSDGRRRFYGDSGK | TRAAGTFDS | 290 nM | 3/3 |
| GFTLNSYGIS | VIYWDARRTFYGDQVK | GRAAGTFDS | 120 µM | 1/3 |
| GFTDNSYGIS | SIYSDGRRTFYGDSVK | GRAAGTKDS | 440 µM | 1/3 |
| GFTLNSYGIS | VIYSDGRRTSYYDSVK | LRAAGTFDS | not detected | 0/3 |
| GFTLNSEGIS | VIYSWGRRTFYGDSVK | GRAAGTFDS | not detected | 0/3 |
| GDTLNSYGIS | VIYSDGLRTFYGDSVK | GSAAGTFDS | 9.4 nM | 3/3 |
| GFTLNSYGPS | VIYSDGRRTFYFDSVK | GRAAGTFYS | not detected | 0/3 |
| GFTLNSYGIS | VIYSDGRRPFYGDVVK | GRAAGTFRS | not detected | 0/3 |
| GFTHNSYGIS | VIYSDGRTTFYGDSVK | GRAAYTFDS | 2.4 µM | 2/3 |
| GFTLNSYGIS | MIYSDGRRTFYGCSVK | GRAAHTFDS | not detected | 0/3 |

A selection of 4 entries from above:

{"CDR-H1": "GFTHNSYVIS", "CDR-H2": "VIYKDGRRTFYGDSVK", "CDR-H3": "GRAAGTFDS", "Kd (apparent)": "not detected", "seen in": "0/3"}
{"CDR-H1": "GFTLNSEGIS", "CDR-H2": "VIYSWGRRTFYGDSVK", "CDR-H3": "GRAAGTFDS", "Kd (apparent)": "not detected", "seen in": "0/3"}
{"CDR-H1": "GMTLNSYGTS", "CDR-H2": "VIYSDGRRTFYGDKVK", "CDR-H3": "GRAAGTFDS", "Kd (apparent)": "4.1 µM", "seen in": "1/3"}
{"CDR-H1": "GFTLNSYGIS", "CDR-H2": "VIYSDGRRTFYGDSNK", "CDR-H3": "GRAAGTFDM", "Kd (apparent)": "17 µM", "seen in": "1/3"}

Source: Engelhart et al. 2022 (doi:10.1038/s41597-022-01779-4), MIT Lincoln Laboratory and A-Alpha Bio; data file from the FLAb repository.